Target: oestrone sulphatase (Homo sapiens, UniProt P08842)
Settings: concentration tested 20 mM (so in the source)

Sequences of proteins named here, by UniProt entry; tags and fusion partners are left off. Residues count along the entry.
UniProt P08842, 22-583: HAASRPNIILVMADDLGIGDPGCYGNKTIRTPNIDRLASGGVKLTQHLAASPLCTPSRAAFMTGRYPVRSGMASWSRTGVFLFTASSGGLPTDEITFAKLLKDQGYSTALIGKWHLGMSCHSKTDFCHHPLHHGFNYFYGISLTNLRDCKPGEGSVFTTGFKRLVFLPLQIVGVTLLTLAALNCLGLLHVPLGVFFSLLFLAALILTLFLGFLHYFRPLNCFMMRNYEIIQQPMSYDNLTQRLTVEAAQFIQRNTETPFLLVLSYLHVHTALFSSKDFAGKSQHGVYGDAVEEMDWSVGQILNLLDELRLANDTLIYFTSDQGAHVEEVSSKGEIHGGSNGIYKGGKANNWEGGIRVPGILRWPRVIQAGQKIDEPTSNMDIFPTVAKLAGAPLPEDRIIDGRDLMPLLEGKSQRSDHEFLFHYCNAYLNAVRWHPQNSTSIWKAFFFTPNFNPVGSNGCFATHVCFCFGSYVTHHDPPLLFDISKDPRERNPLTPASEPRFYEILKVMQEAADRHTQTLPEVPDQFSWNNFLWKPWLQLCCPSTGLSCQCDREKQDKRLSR

C[C@]12CC[C@@H]3c4ccc(OS(N)(=O)=O)c([N+](=O)[O-])c4CC[C@H]3[C@@H]1CCC2=O
% Inhibition (Mean) Placental Microsomes: 99.0%
